The text below walks through data of patent US20110098554A1, “Monitoring of convection enhanced drug delivery” (priority 2004, published 2011).

The nature of the series: CED into rat striatum, convection monitored by T1-weighted MRI of infusates mixed with Gd-DTPA. The protocol: The resultant solution was infused into the striatum of normal Sprague-Dawley (SD) rats (males, 250-300 grams). T1-weighted MR images were acquired immediately post treatment to assess the extent of convection. Additionally, T2-weighted and diffusion-weighted MR images were acquired 24 hours post treatment to assess the response of the tissue and its correlation to the extent of convection.
Under full anesthesia, a midline scalp incision was made to identify the bregma. A 1 mm burr hole was made in the right region of the skull, 3 mm anterior and 2 mm lateral to the bregma. A 33-gauge needle attached to a 1000 μl syringe (Gastight; Hamilton) was placed stereotactically 5.5 mm deep into the striatum. The infusion was performed using a BASI syringe pump at a rate of 1 μl/min for a duration ranging from […].
The volume (in cm^3) of the composition distribution was calculated from the T1-weighted MR images acquired immediately post CED treatment. Region-of interests (ROIs) were defined over the entire enhancing region in each slice (excluding the ventricles). The number of pixels in the ROIs was counted and multiplying by the volume of a single pixel. Equation 1 was used to calculate ADC maps of the diffusion-weighted MR images.

Take “Gadolinium-diethylenetriamine pentaacetic acid [Gd-DTPA]”: the “residual contrast agent in the brain (T1-weighted MRI)” value (24 hours post treatment) is listed as “no residual”. The “clearance of significant percentage from the tissue, time post infusion” value (sequential T1-weighted MR images, 3 cases) is 2 to 4 h.
